We go through one compound from patent US20240269094A1, “Treatment of canine dermatitis and skin irritation” (priority 2023, published 2024).

Protein sequences, listed by entry. Tags and fused reporters are not part of them.
UniProt Q8R4D5, whole entry: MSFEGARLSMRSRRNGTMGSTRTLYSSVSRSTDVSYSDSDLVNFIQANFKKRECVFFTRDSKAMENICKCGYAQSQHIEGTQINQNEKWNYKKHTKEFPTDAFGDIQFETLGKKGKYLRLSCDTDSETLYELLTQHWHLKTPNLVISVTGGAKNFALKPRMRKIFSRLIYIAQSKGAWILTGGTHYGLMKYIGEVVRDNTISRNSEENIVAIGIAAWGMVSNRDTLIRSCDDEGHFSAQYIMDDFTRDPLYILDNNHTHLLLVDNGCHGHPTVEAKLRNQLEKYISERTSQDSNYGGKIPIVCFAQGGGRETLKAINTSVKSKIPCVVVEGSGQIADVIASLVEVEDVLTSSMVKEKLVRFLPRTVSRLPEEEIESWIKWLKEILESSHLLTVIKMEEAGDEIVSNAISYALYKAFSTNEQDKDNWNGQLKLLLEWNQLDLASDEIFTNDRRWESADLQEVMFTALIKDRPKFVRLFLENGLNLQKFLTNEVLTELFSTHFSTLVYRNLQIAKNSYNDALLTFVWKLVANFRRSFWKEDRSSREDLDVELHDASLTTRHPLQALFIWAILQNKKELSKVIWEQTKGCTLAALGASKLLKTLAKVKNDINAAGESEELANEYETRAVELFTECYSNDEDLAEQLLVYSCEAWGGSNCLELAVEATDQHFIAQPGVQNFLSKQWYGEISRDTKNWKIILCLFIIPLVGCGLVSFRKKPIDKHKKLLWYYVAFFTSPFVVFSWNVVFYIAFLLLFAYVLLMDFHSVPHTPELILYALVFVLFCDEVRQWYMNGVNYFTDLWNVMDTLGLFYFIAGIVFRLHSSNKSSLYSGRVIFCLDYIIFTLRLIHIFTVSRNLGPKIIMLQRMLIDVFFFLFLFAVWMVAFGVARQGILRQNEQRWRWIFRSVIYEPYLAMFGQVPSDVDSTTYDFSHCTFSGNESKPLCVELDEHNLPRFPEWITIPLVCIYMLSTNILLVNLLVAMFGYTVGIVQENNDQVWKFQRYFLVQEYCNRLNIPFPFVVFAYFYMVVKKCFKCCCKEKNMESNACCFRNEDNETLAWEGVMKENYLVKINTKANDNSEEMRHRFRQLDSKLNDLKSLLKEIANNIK

What is called pEC50 is the EC50 on a negative log10 scale, so that one unit is a factor of ten.

pEC50: −log10 of the molar value.

The target of one data set is TRPM8 (UniProt Q8R4D5). To be noted: Ref. 3 (Bodding et al., 2007); cited from earlier work.
Data set [1] in a line: Solubility in formulation solvents. The conditions noted are these: 1,2-propanediol solvent, room temperature.

Consider `CC1CCC(C(C)C)C(C(=O)OCC(O)CO)C1` (centres unmarked), for which the negative-log EC50 (pEC50) on TRPM8 was 5.25. In addition, the “solubility” value in data set [1] was “not as soluble as FEMA 4557”.
